Data: ChEMBL document CHEMBL1770143, “Biological evaluation of 3'-O-alkylated analogs of salacinol, the role of hydrophobic alkyl group at 3' position in the side chain on the α-glucosidase inhibitory activity” (Bioorg Med Chem Lett, 2011)

By UniProt entry, the sequences of proteins in these tests, tags left out. Residues count along the entry.
UniProt P23739, 1014-1841 limits assumed: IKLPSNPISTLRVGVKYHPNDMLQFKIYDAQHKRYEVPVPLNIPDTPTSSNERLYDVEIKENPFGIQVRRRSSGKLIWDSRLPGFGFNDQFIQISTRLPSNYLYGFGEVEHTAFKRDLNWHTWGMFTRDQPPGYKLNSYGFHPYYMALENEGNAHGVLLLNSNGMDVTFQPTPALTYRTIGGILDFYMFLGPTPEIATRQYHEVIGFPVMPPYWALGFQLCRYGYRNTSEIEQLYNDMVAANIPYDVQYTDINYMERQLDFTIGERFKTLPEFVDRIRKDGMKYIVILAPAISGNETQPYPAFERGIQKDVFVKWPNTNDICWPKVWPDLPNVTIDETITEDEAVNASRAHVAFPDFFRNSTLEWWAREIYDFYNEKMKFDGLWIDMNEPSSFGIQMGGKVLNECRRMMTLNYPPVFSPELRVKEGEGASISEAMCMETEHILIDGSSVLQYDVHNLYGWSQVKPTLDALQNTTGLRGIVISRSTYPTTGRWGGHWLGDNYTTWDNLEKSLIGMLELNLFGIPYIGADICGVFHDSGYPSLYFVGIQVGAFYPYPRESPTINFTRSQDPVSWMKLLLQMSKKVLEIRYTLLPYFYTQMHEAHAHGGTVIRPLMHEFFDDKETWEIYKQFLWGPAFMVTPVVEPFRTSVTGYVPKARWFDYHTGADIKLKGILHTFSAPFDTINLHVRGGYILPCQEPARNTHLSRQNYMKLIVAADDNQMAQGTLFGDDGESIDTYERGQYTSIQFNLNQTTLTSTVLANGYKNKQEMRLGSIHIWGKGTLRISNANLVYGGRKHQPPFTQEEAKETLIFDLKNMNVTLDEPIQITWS
UniProt P23739, 1-1013 limits assumed: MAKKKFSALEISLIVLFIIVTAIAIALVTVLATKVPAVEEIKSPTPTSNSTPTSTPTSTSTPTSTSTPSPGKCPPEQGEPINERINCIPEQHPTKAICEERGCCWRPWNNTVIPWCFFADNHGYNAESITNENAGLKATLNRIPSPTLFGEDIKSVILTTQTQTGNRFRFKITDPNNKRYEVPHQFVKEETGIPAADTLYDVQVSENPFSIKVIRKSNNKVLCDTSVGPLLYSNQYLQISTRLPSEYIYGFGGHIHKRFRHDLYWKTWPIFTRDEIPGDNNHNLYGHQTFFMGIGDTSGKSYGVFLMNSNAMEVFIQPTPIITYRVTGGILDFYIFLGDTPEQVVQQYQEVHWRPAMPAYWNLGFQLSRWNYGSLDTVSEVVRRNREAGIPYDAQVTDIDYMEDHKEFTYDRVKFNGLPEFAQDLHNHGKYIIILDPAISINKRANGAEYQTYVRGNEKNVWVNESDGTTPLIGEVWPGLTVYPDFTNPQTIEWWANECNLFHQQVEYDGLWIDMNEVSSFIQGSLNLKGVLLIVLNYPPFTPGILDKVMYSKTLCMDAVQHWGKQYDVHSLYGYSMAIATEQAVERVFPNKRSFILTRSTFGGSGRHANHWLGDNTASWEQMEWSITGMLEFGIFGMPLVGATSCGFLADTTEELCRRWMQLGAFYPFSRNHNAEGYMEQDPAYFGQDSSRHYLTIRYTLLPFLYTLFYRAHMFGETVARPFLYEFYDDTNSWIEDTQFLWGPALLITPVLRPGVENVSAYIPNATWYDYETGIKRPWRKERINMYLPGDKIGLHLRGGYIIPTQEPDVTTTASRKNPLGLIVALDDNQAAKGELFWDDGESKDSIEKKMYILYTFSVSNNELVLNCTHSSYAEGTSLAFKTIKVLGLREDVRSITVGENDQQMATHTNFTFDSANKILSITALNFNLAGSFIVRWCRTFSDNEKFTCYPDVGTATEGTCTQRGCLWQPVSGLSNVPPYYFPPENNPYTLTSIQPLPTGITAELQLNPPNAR

Target: Sucrase-isomaltase, intestinal (Rattus norvegicus, UniProt P23739)
Test: Inhibition of rat small intestinal isomaltase after 30 mins by glucose-oxidase method
Procedure, shortened: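 Enzyme source was rat small-intestinal brush border membrane vesicles suspended in 0.1 M maleate buffer, pH 6.0. Substrate solutions, prior to mixing, were maltose 74 mM (maltase), sucrose 74 mM (sucrase) and isomaltose 7.4 mM (isomaltase). Substrate, inhibitor and enzyme were incubated at 37 °C for 30 min, then stopped by 2 min boiling. Released glucose was measured by glucose oxidase. Final DMSO was 2.5%.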

IC50: 646 µM
Structure (SMILES): C[C@H]1O[C@H](O[C@H]2[C@H](O)[C@@H](O)[C@@H](O[C@H]3[C@H](O)[C@@H](O)C(O)O[C@@H]3CO)O[C@@H]2CO)[C@H](O)[C@@H](O)[C@@H]1N[C@H]1C=C(CO)[C@@H](O)[C@H](O)[C@H]1O (stereo partly specified) [ACARBOSE]
